Patent publication US10933032B2, “Methods for the treatment of cancer using coenzyme Q10 combination therapies” (Berg LLC, priority 2013, dated 2021)

What was measured:
[1] = tested on: SK-Br3 breast cancer cells; assay: In vitro cell viability / viable cell number; type: cell-based, Human; settings: SkBr-3 Breast; chemotherapeutic agent with CoQ10
Method: Cell lines (e.g., MIAPaCa-2, Hep3B, and/or SK-Br3) cell lines were maintained in culture using standard culture conditions for each cell line. Cells were treated with CoQ10 or the indicated chemotherapeutic agents at the indicated concentrations for the indicated times. After the predetermined incubation time, the cells were stained to distinguish between viable and non-viable cells using routine methods. Cells were counted by microscopy or flow cytometry. The number of cells after treatment were normalized to the number of cells in the untreated sample.
Specifically, to assess the efficacy of CoQ10 in combination with gemcitabine in vitro, MIAPaCa-2 pancreatic carcinoma cells were maintained in culture and exposed to increasing concentrations of gemcitabine in combination with CoQ10, the 4% CoQ10 intravenous formulation, or the excipient of the CoQ10 intravenous formulation. […] The combination treatment with gemcitabine and the 4% CoQ10 intravenous formulation results in an increase in cell death as compared to gemcitabine treatment alone.
To assess the efficacy of CoQ10 in combination with doxorubicin in vitro, MIAPaCa-2 pancreatic carcinoma cells were maintained in culture and exposed to increasing concentrations of gemcitabine in combination with CoQ10, the 4% CoQ10 intravenous formulation, or the excipient of the CoQ10 intravenous formulation. […]

[2] = tested on: MDA-MB231 breast cancer cells; assay: Number of viable cells; settings: MB231 TNBC; chemotherapeutic agent with CoQ10
MCF-7 Breast = assay: Viable cell numbers, cotreatment or pretreatment with CoQ10
[3] = tested on: SKOV3 ovarian cancer cells; assay: as above

Measured: Cell/chemotherapeutic agent combinations that significantly reduced viable cell numbers

4-Hydroxy-cyclophosphamide
Co: all assays above
